In patent US8242118B2, “Arylsulfonamide derivatives for use as CCR3 antagonists in the treatment of inflammatory and immunological disorders” (Axikin Pharmaceuticals Inc., priority 2001, dated 2012) one finds IC50 data, which are given here for one molecule.

Chains of the proteins cited; added tags and fusions are not shown.
UniProt P51677, whole entry: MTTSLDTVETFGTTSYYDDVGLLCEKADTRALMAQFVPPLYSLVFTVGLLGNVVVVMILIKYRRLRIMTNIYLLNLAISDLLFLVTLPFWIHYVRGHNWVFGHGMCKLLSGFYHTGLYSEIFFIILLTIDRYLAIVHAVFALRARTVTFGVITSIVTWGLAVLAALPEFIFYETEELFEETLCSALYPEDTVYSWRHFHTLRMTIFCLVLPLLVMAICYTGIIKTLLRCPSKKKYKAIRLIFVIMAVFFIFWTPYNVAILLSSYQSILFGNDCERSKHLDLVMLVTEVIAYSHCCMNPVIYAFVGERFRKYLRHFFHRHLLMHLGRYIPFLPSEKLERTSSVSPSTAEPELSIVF

SMILES strings stand for the structures.

Assay [1] addresses T1, Human CCR3 (Homo sapiens, UniProt P51677). As to the kind of experiment: Receptor binding assay (RBA), [125I]-eotaxin. Conditions: read-out: Activity grade RBA (IC50 class); human CCR3-transformed K562 cells, 0.1 nM [125I]-eotaxin; compounds of about 40 to 90% purity; tested form: dihydrochloride. On the procedure:
[Determination of IC50 Values of Compounds in Receptor Binding Assay]
(§1) • Human CCR3-transformed K562 cells were used. The cloned CCR3 cDNA was constructed with pcDNA3 vector and transfected into a IC562 cell line. The human CCR3-transformed K562 cells were maintained in RPMI-1640 (Cat.#22400-089, Life Technologies) supplemented with 10% FCS (Cat.#A-1115-L, Hyclone), 55 μM 2-mercaptoethanol (Cat.#21985-023, Life Technologies), 1 mM sodium pyruvate (Cat.#11360-070, Life Technologies), 100 units/ml of penicillin G and 100 μg/ml of streptomycin (Cat.#15140-122, Life Technologies), and 0.4 mg/ml of Geneticin (Cat.#10131-035, Life Technologies)(hereinafter called “culture medium”). Before the receptor binding assay, cells were pretreated with 5 mM sodium butyrate (Cat.#193-01522, Wako)-containing the culture medium (2×10^5 cells/ml) for 20-24 hours to increase the expression of CCR3. […] The non-specific binding was determined by parallel incubation in the presence of 500 nM of non-labeled eotaxin (Cat.#23209, Genzyme Techne). The radioactivities remained on the filter were measured by liquid scintillation counter (TopCount™, Packard) after an addition of 45 μl/well of scintillant (Microscint20, Cat.#6013621, Packard). The inhibition percent at each concentration of compound was calculated, and IC50 values were determined from the inhibition curve. […]

Assay [2] has as its target T1, Human CCR3. Description: Calcium mobilization assay, eotaxin-stimulated. Conditions: read-out: Activity grade Ca2+ (IC50 class); human CCR3-transformed K562 cells, 10 nM eotaxin; compounds of about 40 to 90% purity; tested form: dihydrochloride. On the procedure: as §1
(In general: Calcium flux is commonly read through the fluorescence of an indicator in the cells.)

In general, IC50 refers to the point on the concentration scale where inhibition reaches its midpoint.

Take `O=S(=O)(c1cnccc1Oc1cc(Cl)cc(Cl)c1)N1CCNCC1`: the IC50 at Human CCR3 [1] and at Human CCR3 [2] was under 1000 nM each time.
